Laboratory results taken from patent publication US20100249223A1, “NEW USE FOR CANNABINOID-CONTAINING PLANT EXTRACTS” (priority 2007, published 2010).

Amino acid sequences for entries named in this document (tags omitted).
UniProt Q6RI86, whole entry: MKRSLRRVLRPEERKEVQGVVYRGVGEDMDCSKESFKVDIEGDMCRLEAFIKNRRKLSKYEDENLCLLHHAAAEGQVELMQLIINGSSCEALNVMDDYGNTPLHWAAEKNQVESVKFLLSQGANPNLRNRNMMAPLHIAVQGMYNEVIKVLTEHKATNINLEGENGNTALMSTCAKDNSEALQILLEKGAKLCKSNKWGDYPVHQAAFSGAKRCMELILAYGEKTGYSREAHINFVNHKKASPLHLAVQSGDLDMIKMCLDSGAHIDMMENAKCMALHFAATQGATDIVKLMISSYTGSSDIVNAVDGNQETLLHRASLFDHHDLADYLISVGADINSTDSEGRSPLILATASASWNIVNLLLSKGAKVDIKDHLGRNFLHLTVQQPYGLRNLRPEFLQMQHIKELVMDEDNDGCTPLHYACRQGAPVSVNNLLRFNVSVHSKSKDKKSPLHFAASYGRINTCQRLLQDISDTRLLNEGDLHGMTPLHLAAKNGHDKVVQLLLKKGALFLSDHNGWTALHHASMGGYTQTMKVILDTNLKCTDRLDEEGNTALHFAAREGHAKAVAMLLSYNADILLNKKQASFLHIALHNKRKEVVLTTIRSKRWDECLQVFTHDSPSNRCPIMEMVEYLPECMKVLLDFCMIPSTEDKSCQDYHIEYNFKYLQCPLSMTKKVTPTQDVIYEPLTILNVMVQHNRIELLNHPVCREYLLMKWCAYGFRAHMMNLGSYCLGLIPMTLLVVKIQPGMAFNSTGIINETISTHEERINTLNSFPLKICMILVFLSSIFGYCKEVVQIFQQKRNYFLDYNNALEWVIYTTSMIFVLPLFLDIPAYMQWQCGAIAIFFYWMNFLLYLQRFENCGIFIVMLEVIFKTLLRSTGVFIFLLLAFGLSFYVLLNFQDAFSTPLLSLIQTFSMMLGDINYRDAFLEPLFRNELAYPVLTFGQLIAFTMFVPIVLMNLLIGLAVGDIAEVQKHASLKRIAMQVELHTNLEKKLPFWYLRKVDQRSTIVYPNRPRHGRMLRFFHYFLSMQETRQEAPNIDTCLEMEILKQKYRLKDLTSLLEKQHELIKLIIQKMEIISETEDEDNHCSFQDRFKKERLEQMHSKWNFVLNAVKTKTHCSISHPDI

Target: T1, TRPA1 channel (Rattus norvegicus, UniProt Q6RI86)
T1 construct: expressed in transfected cells
Experiment: Intracellular Ca2+ elevation in HEK-293 cells over-expressing rat TRPA1
Type: cell-based
Conditions: TRPA1-HEK-293 cells, Fluo-4; read-out: -logEC50% (M) for the elevation of [Ca2+]i (converted)
Experimental: The applicants have conducted experiments using cannabinoid-containing plant extracts on rat recombinant TRPV1, TRPM8 channels and TRPA1 (also known as ANKTM1) channels, both were stably expressed in HEK293 cells. The TRPA1 channel is the receptor for mustard oil isothiocyanates and other plant natural products such as cinnamaldehyde. The TRPM8 channel is the receptor from menthol and icilin. The intracellular Ca^2+ concentration was determined before and after the addition of various concentrations of test compounds.
[…]. For the experiments with the TRPM8 channels menthol and icilin were used to activate the channels. For the experiments with the TRPV1 channels ionomycin was used to activate the channels. The cannabinoid-containing plant extracts were produced from cannabis plants using the subcritical CO2 extraction technique as described in the applicants granted United Kingdom patent GB2391865. […]
HEK293 (human embryonic kidney) cells were plated on 100 mm diameter Petri dishes and transfected at about 80% confluence with Lipofectamine 2000 (Invitrogen) using a plasmid containing the rat TRPA1, TRPV1 or TRPM8 cDNA, according to the manufacturer's protocol. […] Stable transfection was checked by quantitative real time-PCR (RT-PCR). […]

With `C=CCN=C=S` [Mustard oil (allyl isothiocyanate), allyl isothiocyanate, reference compound] the EC50 was 2.51e-06 M.
